Source: PubChem BioAssay (Tox21)
This is a selection; strong and weak results do not stand in their true shares. Inconclusive results are not listed. Activity calls are given as the source filed them. Unless noted, the call rests on the fitted dose curve; in most records, active means well fitted curve in the direction sought with a large enough effect in the repeat runs; inconclusive means weak or mixed curves; inactive means no such curve, though single readings can be large; an effect the other way counts as inactive or inconclusive.

By UniProt entry, the sequences of proteins in these tests, tags left out.
UniProt P11473, whole entry: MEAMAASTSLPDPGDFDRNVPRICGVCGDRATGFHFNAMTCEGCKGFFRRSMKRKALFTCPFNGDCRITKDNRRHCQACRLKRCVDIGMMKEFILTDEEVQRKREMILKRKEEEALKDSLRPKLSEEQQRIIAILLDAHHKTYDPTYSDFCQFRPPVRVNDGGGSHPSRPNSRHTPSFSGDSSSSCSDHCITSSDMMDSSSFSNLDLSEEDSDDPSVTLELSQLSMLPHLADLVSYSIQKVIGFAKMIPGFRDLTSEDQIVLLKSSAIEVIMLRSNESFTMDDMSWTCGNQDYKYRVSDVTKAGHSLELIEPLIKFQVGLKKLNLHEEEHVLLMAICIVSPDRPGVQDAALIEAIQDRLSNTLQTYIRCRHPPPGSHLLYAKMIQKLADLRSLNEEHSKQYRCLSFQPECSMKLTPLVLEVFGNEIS
UniProt P16473, whole entry: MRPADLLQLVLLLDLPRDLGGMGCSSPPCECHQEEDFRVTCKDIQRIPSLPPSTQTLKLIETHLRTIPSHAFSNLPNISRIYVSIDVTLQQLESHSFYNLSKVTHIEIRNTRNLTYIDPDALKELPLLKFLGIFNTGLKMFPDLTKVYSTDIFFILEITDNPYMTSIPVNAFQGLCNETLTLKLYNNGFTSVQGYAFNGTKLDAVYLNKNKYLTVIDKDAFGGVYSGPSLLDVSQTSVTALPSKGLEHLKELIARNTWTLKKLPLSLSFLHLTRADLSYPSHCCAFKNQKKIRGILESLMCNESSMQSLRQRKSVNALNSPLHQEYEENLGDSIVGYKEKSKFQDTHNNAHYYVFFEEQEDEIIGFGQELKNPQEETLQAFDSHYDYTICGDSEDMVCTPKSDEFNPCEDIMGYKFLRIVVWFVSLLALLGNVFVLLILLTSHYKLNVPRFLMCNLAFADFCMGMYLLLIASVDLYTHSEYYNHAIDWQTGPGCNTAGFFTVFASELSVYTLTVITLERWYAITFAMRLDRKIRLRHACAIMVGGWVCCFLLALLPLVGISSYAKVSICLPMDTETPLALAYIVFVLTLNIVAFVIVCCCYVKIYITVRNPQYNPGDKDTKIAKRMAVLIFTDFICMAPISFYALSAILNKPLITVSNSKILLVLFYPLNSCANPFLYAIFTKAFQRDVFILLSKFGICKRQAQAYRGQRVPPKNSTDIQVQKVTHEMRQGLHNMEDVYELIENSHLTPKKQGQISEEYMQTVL
UniProt Q12809, whole entry: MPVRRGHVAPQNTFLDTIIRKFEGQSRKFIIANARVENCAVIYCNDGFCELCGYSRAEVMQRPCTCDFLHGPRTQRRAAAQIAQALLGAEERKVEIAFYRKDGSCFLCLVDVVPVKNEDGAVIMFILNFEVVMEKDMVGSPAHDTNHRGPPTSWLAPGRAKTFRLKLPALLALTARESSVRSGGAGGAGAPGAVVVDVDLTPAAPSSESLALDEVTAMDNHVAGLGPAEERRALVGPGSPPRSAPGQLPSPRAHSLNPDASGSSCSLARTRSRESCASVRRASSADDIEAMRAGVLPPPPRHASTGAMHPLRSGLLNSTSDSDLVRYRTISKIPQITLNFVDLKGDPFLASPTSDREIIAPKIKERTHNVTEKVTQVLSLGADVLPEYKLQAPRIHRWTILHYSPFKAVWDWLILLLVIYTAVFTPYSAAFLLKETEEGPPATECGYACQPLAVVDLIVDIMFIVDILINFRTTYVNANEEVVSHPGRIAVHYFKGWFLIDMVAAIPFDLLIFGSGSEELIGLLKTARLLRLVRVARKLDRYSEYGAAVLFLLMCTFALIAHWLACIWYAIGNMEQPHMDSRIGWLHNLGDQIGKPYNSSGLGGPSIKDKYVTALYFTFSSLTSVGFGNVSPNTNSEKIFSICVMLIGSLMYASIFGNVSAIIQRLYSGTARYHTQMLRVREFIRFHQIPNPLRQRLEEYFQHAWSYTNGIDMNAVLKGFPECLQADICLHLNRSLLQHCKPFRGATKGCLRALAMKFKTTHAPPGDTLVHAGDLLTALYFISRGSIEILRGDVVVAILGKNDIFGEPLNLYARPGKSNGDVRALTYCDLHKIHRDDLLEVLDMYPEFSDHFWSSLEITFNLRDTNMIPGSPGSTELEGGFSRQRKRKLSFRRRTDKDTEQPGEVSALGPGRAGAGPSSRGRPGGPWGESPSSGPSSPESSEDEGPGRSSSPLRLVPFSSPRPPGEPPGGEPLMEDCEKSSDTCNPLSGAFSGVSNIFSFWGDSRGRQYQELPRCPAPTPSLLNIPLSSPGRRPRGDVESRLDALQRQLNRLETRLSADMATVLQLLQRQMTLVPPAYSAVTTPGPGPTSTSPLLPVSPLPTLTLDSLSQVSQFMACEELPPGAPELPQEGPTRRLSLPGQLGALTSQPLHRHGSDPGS

How the values were obtained:
[1] = qHTS assay to identify small molecule agonists of the estrogen receptor alpha (ER-alpha) signaling pathway in the presence of an antagonist - cell viability counter screen (AID 1259386);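 further: series mostly up to about 92 µM; cells exposed to compounds for 22 h at 37 °C before the viability read; nearly all actives have a fitted effect of over 30% in size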
Outline: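 ICI-182,780 at 10.0nM final accompanies the compound titration (15 concentrations, 22hr, 37C) on VM7Luc4E2 cells. The CellTiter-Fluor fluorescence readout runs in the same wells as the luciferase assay.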

[2] = qHTS assay to identify small molecule antagonists of the progesterone receptor (PR) signaling pathway - cell viability counter screen (AID 1346798); further: nearly all actives have a fitted effect of over 50% in size; further: potency means the concentration at half of the fitted maximal effect
Outline: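 PR-UAS-bla HEK293T cells in medium with 2% charcoal-stripped FBS were treated with compounds plus R5020 for 16 hr at 37C. Cell viability was then read by CellTiter-Glo luminescence after 30 min at room temperature in the same wells.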

[3] = qHTS assay for small molecule agonists of the p53 signaling pathway - cell viability (AID 651633; calls by dose curve; further: potency means the concentration at half of the fitted maximal effect; nearly all actives have a fitted effect of over 30% in size)
Outline: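 p53RE-bla cells, seeded at 4,000 per well and rested 5 h at 37 C/5% CO2, received compounds in DMSO for 16 h at 37 C. CellTiter-Glo was then added, and luminescence was read after 30 min at room temperature to gauge cytotoxicity.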

[4] = qHTS assay for small molecule disruptors of the mitochondrial membrane potential - cell viability (AID 720634; calls by dose curve; further: potency means the concentration at half of the fitted maximal effect; nearly all actives have a fitted effect of over 20% in size); settings: HepG2 viability, ATP luminescence (CellTiter-Glo), 1 h
Outline: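 Measuring cytotoxicity alongside mitochondrial potential, the screen quantified ATP by luminescence in HepG2 cells after 1 hr compound incubation and a 30 min room-temperature CellTiter-Glo step.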

[5] = qHTS assay for identifying genotoxic compounds that show differential cytotoxicity against isogenic chicken DT40 cell lines with known DNA damage response pathways - Rad54/Ku70 mutant cell line (AID 743015); settings: DT40 Rad54/Ku70 mutant viability, CellTiter-Glo, 40 h; further: potency means the concentration at half of the fitted maximal effect; nearly all actives have a fitted effect of over 60% in size
Excerpt: National Center for Advancing Translational Sciences [NCATS]
NIH Chemical Genomics Center [NCGC]
U.S. Environmental Protection Agency [EPA]
National Institutes of Environmental Health Sciences [NIEHS]
National Toxicology Program [NTP]
U.S. Food and Drug Administration [FDA]
DNA repair pathways play a critical role in cellular homeostasis by repairing DNA damage induced by endogenous processes and xenobiotics. Isogenic chicken DT40 cell lines deficient in different DNA repair pathways can be used to identify genotoxic compounds and aid in characterizing the nature of the DNA damage induced. Two DNA repair-deficient cell lines with disrupted genes, Rad54/Ku70 or Rev3, were used to screen the Tox21 10K compound library. Possible genotoxicity was based on the presence of a significant increase in cytotoxicity in one or more of the DNA repair-deficient cell lines compared to that observed in the parental DNA repair-proficient cell line. CellTiter Glo viability assay (Promega, Madison, WI) was used to measure cell viability in these cells after compound treatment. This assay includes the data from the Rad54/Ku70 mutant cell line.
Tox21 Assay Protocol Summary:
300 DT40 mutant cells in 5 uL/well were dispensed into white, solid-bottom 1536-well plates using a Multidrop Combi (ThermoFisher Scientific, Waltham, MA) dispenser. After the assay plates were incubated at 37 C/5% CO2 for approximately 0.5 hour, 23 nL of compounds dissolved in DMSO, positive controls or DMSO only was transferred into the assay plate by a pintool work station (Kalypsys, San Diego, CA). The assay plates were incubated at 37 C/5% CO2 for 40 hours. After 5 uL per well of CellTiter-Glo reagent was added into each well of the assay plates, the plates were incubated for 30 min at room temperature and the luminescence intensity of the plates was measured using a ViewLux (PerkinElmer, Shelton, CT) plate reader.

[6] = qHTS assay to identify small molecule antagonists of the estrogen receptor alpha (ER-alpha) signaling pathway using the BG1 cell line - cell viability counter screen (AID 743081);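 further: compound given together with 17beta-estradiol as the ER stimulus; potency means the concentration at half of the fitted maximal effect; nearly all actives have a fitted effect of over 45% in size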
[7] = qHTS assay to identify small molecule agonists of the farnesoid-X-receptor (FXR) signaling pathway - cell viability counter screen (AID 743218); settings: FXR-bla HEK293T viability, CellTiter-Glo luminescence, 16 h; further: potency means the concentration at half of the fitted maximal effect; nearly all actives have a fitted effect of over 45% in size
Outline: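 After 16 h at 37 C with test compounds, FXR-bla HEK 293T cells were given LiveBLAzer B/G substrate for 2 h at RT and then CellTiter-Glo; luminescence was taken after 30 min.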

[8] = qHTS assay to identify small molecule antagonists of the farnesoid-X-receptor (FXR) signaling pathway - cell viability counter screen (AID 743221; active means well fitted cell-killing curve with a large enough effect in the repeat runs, not every such curve was filed as active; further: potency means the concentration at half of the fitted maximal effect; nearly all actives have a fitted effect of over 50% in size); settings: FXR-bla HEK293T viability, CellTiter-Glo luminescence, 16 h
Outline: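 FXR-UAS-bla HEK 293T cells were treated with test compounds plus chenodeoxycholic acid (50 uM final) for 16 h at 37 C. Cell viability in the same wells was then read as CellTiter-Glo luminescence after 30 min at room temperature.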

[9] = target: Vitamin D3 receptor (Homo sapiens) (UniProt P11473); assay: qHTS assay to identify small molecule antagonists of the vitamin D receptor (VDR) signaling pathway (AID 743223; active means well fitted inhibition curve with a large enough effect in the signal ratio in the repeat runs, not every such curve was filed as active; the % refers to the signal ratio; further: potency means the concentration at half of the fitted maximal effect); settings: VDR-UAS-bla HEK293T, beta-lactamase FRET ratio, 16 h
Outline: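 VDR-bla cells were plated, incubated 4 h at 37C, then given compound and 1alpha,25-dihydroxyvitamin D3 (3 nM final). After 16 h at 37C, LiveBLAzer B/G FRET substrate was added for 2 h at room temperature and fluorescence read.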

[10] = qHTS assay to identify small molecule agonists of the vitamin D receptor (VDR) signaling pathway - cell viability counter screen (AID 743224); further: potency means the concentration at half of the fitted maximal effect; nearly all actives have a fitted effect of over 50% in size
Outline: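 Here cell health was gauged by luminescent ATP detection (CellTiter-Glo, 30 min RT) in VDR-bla cells that had been incubated with test compounds for 16 h at 37C and 5% CO2.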

[11] = qHTS assay to identify small molecule agonists of the NFkB signaling pathway - cell viability counter screen (AID 1159515; calls by dose curve; further: potency means the concentration at half of the fitted maximal effect; nearly all actives have a fitted effect of over 55% in size); settings: NFkB-bla ME-180 viability, CellTiter-Glo luminescence, 5 h
Outline: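 5 hr compound treatment of NFkB-bla ME-180 cells (2,000/well, seeded overnight beforehand), followed by reporter substrate for 1.5 hr. CellTiter-Glo added afterward; luminescence after 30 min RT.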

[12] = target: Nuclear receptor ROR-gamma (Homo sapiens) (UniProt P51449); assay: qHTS assay to identify small molecule antagonists of the retinoid-related orphan receptor gamma (ROR-gamma) signaling pathway (AID 1159521; further: potency means the concentration at half of the fitted maximal effect; nearly all actives have a fitted effect of over 50% in size); settings: Tet-on RORgamma CHO cells, RORE-luciferase, 16 h
[13] = qHTS assay to identify small molecule antagonists of the retinoid acid receptor (RAR) signaling pathway - cell viability counter screen (AID 1159551); settings: C3RL4 cells viability, ATP luminescence (CellTiter-Glo), 6 h; further: potency means the concentration at half of the fitted maximal effect; nearly all actives have a fitted effect of over 35% in size
Outline: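 Seed C3RL4 cells; next day add compound, then retinol to 1 uM final; incubate 6 h at 37 C; add CellTiter-Glo; read luminescence after 30 min at RT.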

[14] = qHTS assay to identify small molecule antagonists of the retinoic acid receptor (RAR) signaling pathway (AID 1159552); settings: C3RL4 RARE luciferase reporter, retinol-stimulated, 6 h
Outline: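 RARE-luc C3RL4 cells; cpds + 1 uM (final) retinol, 6 hr, 37 C/5% CO2; luciferase reagent, 30 min RT, luminescence readout. Inhibitors of retinol-driven signal scored.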

[15] = qHTS assay to identify small molecule antagonists of the estrogen related receptor (ERR) signaling pathway from Tox21 library - cell viability counter screen (AID 1224834); further: potency means the concentration at half of the fitted maximal effect; nearly all actives have a fitted effect of over 30% in size
Outline: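 CellTiter-Fluor fluorescence measured; ERR cells; 17.5 h compound incubation at 37 C; 30 min reagent step.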

[16] = qHTS assay to identify small molecule antagonists of the estrogen related receptor signaling pathway with the pleiotropic PPARgamma coactivator (PGC) from Tox21 10K library - cell viability counter screen (AID 1224840; active means well fitted cell-killing curve with a large enough effect in the repeat runs, not every such curve was filed as active; further: potency means the concentration at half of the fitted maximal effect; nearly all actives have a fitted effect of over 40% in size)
Outline: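 Here the PGC/ERR cells serve as a cytotoxicity control: they are exposed to compounds for 17.5 hours at 37 C, and live-cell signal is quantified using CellTiter-Fluor fluorescence.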

[17] = qHTS assay to identify small molecule agonists of the hypoxia (HIF-1) signaling pathway - cell viability counter screen (AID 1224844; calls by dose curve); settings: HRE-bla ME-180 viability, CellTiter-Glo luminescence, 17 h
Outline: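 Multiplexed with the HRE beta-lactamase assay, this viability read used CellTiter-Glo luminescence (30 min, RT) on HRE-bla ME-180 cells treated 17 hrs with compounds in 0.5% dialyzed FBS medium.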

[18] = qHTS RealTime-Glo MT Cell Viability Assay in HEK293 cells - 40 hour (AID 1224874); settings: RealTime-Glo luminescence
Outline: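 Tox21 screen in HEK293 using RealTime-Glo MT chemistry, with cells and reagent co-dispensed. Luminescence proportional to viable cell number was captured at intervals during 40 h compound exposure at 37 C.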

[19] = qHTS assay to identify small molecule antagonists of the estrogen receptor alpha (ER-alpha) signaling pathway using the BG1 cell line in the presence of 0.1 nM 17-beta-estradiol - cell viability counter screen (AID 1259241); settings: VM7Luc4E2 (BG1) viability, CellTiter-Fluor protease, 22 h; 0.1 nM estradiol agonist added; further: potency means the concentration at half of the fitted maximal effect; nearly all actives have a fitted effect of over 40% in size
Outline: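 VM7Luc4E2 cells (endogenous ER-alpha, 4×ERE-luciferase), hormone-starved 5 days in charcoal-stripped FBS, were treated with compounds plus 0.1 nM 17beta-estradiol for 22 hr at 37C; viability read in same wells as CellTiter-Fluor live-cell protease fluorescence.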

[20] = qHTS assay to identify small molecule HDAC inhibitors - cell viability counter screen (AID 1259365)
Outline: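 Wild-type HCT-116 cells were seeded at 1,500 per well, incubated overnight at 37 C, then exposed to compounds in DMSO for 2hr. Viability was read by CellTiter-Glo luminescence after 30min at room temperature.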

[21] = qHTS assay to identify small molecule agonists of the androgen receptor (AR) signaling pathway in the presence of an antagonist - cell viability counter screen (AID 1259379); settings: MDA-kb2 viability, CellTiter-Fluor, 16 h; further: potency means the concentration at half of the fitted maximal effect; nearly all actives have a fitted effect of over 25% in size
Outline: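 A CellTiter-Fluor read-out measured viability of MDA-kb2 reporter cells (MMTV promoter with AR and GR response elements). Treatment: nilutamide 3.0uM final with compounds at 15 concentrations, 16 hr, 37C, 0% CO2.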

[22] = qHTS assay to identify small molecule agonists of the estrogen receptor beta (ER-beta) signaling pathway - cell viability counter screen (AID 1259380); settings: ER-beta-bla HEK293T viability, CellTiter-Glo luminescence, 16 h; further: potency means the concentration at half of the fitted maximal effect; nearly all actives have a fitted effect of over 30% in size
Outline: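 Cells used were ER-beta-UAS-bla HEK293T in medium with 2% charcoal-stripped FBS. They were treated for 16 hr at 37C. Viability came from CellTiter-Glo luminescence.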

[23] = qHTS assay to identify small molecule antagonists of the estrogen receptor beta (ER-beta) signaling pathway - cell viability counter screen (AID 1259382); settings: ER-beta-UAS-bla HEK293T viability, CellTiter-Glo luminescence, 16 h; further: potency means the concentration at half of the fitted maximal effect; nearly all actives have a fitted effect of over 55% in size
Outline: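 Agonist-stimulated (1nM E2) ER-beta-UAS-bla HEK293T cells are incubated with library compounds for 16 hr at 37C. Cell viability is then assessed in the reporter-assay wells by adding CellTiter-Glo and reading luminescence after 30 min.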

[24] = target: Thyrotropin receptor (Homo sapiens) (UniProt P16473); assay: qHTS assay to identify small molecule antagonists of the thyroid stimulating hormone receptor (TSHR) signaling pathway (AID 1259385; calls by dose curve; further: potency means the concentration at half of the fitted maximal effect; nearly all actives have a fitted effect of over 20% in size); settings: TSHR-HEK293 cAMP HTRF, TSH-stimulated antagonist mode
[25] = target: Voltage-gated inwardly rectifying potassium channel KCNH2 (Homo sapiens) (UniProt Q12809); assay: Human Ether-a-go-go-Related Gene (hERG) channel small molecule antagonists: fluorescence cell-based qHTS assay (AID 1671200); settings: hERG-U2OS cells, FluxOR thallium flux fluorescence
Outline: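 U2OS cells expressing the channel were plated at 1000 cells/well, incubated overnight at 37 C, then loaded with FluxOR II thallium-sensitive dye for 1 h at room temperature in the dark, with a further 10 min at room temperature before stimulation.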

Measured: Potency

O=[N+]([O-])c1ccc(S(=O)(=O)O)c([N+](=O)[O-])c1
inactive: [1] | [2]

O=[As]c1ccccc1 (stereo unspecified)
active: [3] 13.7 µM | [4] 1.22 µM | [5] 0.0969 µM | [6] 6.11 µM | [7] 0.692 µM | [8] 1.55 µM | [9] 0.245 µM | [10] 0.389 µM | [11] 13.8 µM | [12] 0.217 µM | [13] 4.33 µM | [14] 0.545 µM | [15] 1.22 µM | [16] 0.545 µM | [17] 24.5 µM | [18] 0.389 µM | [19] 6.11 µM | [20] 13.7 µM | [21] 4.33 µM | [22] 1.93 µM | [23] 2.43 µM | [24] 13.7 µM | [2] 1.93 µM | [25] 24.5 µM
